Earlier results as cited in patent publication US20070016968A1, “Treatment of pain through expression of opioid receptors” (priority 2003, published 2007).

Chains of the proteins cited; added tags and fusions are not shown.
UniProt P32300, whole entry: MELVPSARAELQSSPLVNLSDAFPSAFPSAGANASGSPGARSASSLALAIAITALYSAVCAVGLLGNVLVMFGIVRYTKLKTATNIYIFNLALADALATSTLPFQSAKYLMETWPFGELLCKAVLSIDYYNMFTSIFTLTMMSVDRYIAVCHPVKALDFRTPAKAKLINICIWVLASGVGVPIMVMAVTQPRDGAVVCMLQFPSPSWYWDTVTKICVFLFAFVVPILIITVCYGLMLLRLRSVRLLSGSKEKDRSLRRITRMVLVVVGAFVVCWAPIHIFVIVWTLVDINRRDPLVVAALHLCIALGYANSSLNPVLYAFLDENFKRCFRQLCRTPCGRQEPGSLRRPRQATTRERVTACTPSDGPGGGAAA
UniProt P41143, whole entry: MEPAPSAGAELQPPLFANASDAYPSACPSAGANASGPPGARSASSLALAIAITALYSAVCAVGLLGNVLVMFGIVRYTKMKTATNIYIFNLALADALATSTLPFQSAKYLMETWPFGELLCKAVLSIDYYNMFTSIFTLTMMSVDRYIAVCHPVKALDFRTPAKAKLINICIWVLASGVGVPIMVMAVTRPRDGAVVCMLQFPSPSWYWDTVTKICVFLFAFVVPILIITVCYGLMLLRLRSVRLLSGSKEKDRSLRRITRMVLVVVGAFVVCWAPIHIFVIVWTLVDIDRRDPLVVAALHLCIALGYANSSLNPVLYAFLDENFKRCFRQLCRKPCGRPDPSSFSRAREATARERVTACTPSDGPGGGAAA

Assays:
cloned DOR-1 receptor [1] = target: cloned DOR-1 receptor (Mus musculus, UniProt P32300); conditions: mouse recombinant receptor (Law et al 1994)
cloned DOR-1 receptor [2] = target: cloned DOR-1 receptor (Homo sapiens, UniProt P41143); conditions: human recombinant receptor (Law et al 1994)

## DPDPE
Cloned DOR-1 receptor [1]
  binding to recombinant receptor: bind
Cloned DOR-1 receptor [2]
  binding to recombinant receptor: bind
